## Measured properties of organic chemicals

The melting point is given in degrees Celsius.
Boiling points are in °C, nominally at 760 mmHg.
The octanol-water partition coefficient is given as log10; larger values mean a more lipophilic compound.
Solubility in water is on a log10 molar scale (set defined at 25 °C).
Vapor pressures (log10 mmHg) refer to near room temperature, 15 to 30 °C; higher is more volatile.
fu is the fraction unbound in human plasma, from 0 to 1.
Clint is human hepatic intrinsic clearance in µL/min per million cells; 0 means that no clearance was seen.

Listed for CCCCCCOC(=O)CC: water solubility -3.399 (log10 mol/L) and log VP 0.035 (log10 mmHg).
Listed for COC(=O)c1cc(C(=O)O)cc([N+](=O)[O-])c1: logP 1.65 and water solubility -2.074 (log10 mol/L).
Listed for NCCCCN: water solubility 1 (log10 mol/L) and log VP 0.523 (log10 mmHg).
Listed for Cc1nnc(NS(=O)(=O)c2ccc(N)cc2)s1: water solubility -2.41 (log10 mol/L) and fu 0.08044.
Listed for CCCC/C=C\CCCCCCCCO: water solubility -4.971 (log10 mol/L) and log VP -4.225 (log10 mmHg).
Listed for Nc1ccc(S(N)(=O)=O)cn1: melting point 172 °C and water solubility -1.217 (log10 mol/L).
Listed for CC(=O)c1cccc(C(F)(F)F)c1: melting point -0.8 °C and logP 2.55 and water solubility -2.482 (log10 mol/L) and log VP -0.581 (log10 mmHg).
Listed for CC(=O)CC(=O)OCCOC(=O)CC(C)=O: logP -0.9 and log VP -4.378 (log10 mmHg).
Listed for N#Cc1ccc(Nc2nccc(Cl)n2)cc1: melting point 216.1 °C and water solubility -5.439 (log10 mol/L) and log VP -9.604 (log10 mmHg).
Listed for c1ccc(OCCOc2ccccc2)cc1: water solubility -3.989 (log10 mol/L) and log VP -5.488 (log10 mmHg).
Listed for Cc1[nH]n(-c2ccccc2)c(=O)c1N=Nc1ccccc1: water solubility -7.541 (log10 mol/L) and log VP -8.202 (log10 mmHg).
Listed for Cc1ccc([N+](=O)[O-])cc1Cl: logP 3 and water solubility -3.32 (log10 mol/L) and log VP -2.307 (log10 mmHg).
Listed for CO[Si](C)(CCCS[Si](C)(C)C(C)(C)C)OC: bp 289.9 °C and log VP -2.435 (log10 mmHg).
Listed for C=CCOc1ccccc1OCC(O)CNC(C)C (stereo not drawn): fu 0.265 and Clint 4.283 µL/min/10^6 cells.
Listed for O=C1N=C(O)C2=C1CCCC2: melting point 191.6 °C and logP 1.48 and water solubility -1.975 (log10 mol/L).
Listed for NS(=O)(=O)c1cc(Cl)c(Cl)c(S(N)(=O)=O)c1: logP 0.2 and water solubility -2.885 (log10 mol/L).
Listed for COC(=O)c1ccc(C(=O)OC)c(C(=O)OC)c1: bp 341.2 °C and logP 1.96 and water solubility -2.356 (log10 mol/L) and log VP -4.75 (log10 mmHg).
Listed for CC[C@@H]([C@H](C)OCc1ccccc1)N(N)C(=O)Nc1ccc(N2CCN(c3ccc(OC[C@@H]4CO[C@@](Cn5cncn5)(c5ccc(F)cc5F)C4)cc3)CC2)cc1: melting point 143.9 °C and water solubility -7.236 (log10 mol/L) and log VP -7.932 (log10 mmHg).
Listed for CC(C)(C=NCCCCCCN=CC(C)(C)CN1CCOCC1)CN1CCOCC1: bp 293.4 °C and log VP -4.418 (log10 mmHg).
Listed for C=CC(=O)NC(C)(C)CS(=O)(=O)O: logP -3.7 and log VP -8.481 (log10 mmHg).
Listed for O=C(O)c1ccc(NC(=O)[C@H](Cc2ccc(O)cc2)NC(=O)c2ccccc2)cc1: logP 3.3 and water solubility -4.992 (log10 mol/L).
Listed for N[C@@H](Cc1ccc(O)c(I)c1)C(=O)O: logP -0.56 and water solubility -2.01 (log10 mol/L).
Listed for CN1C(C(=O)Nc2ccccn2)=C(O)c2sccc2S1(=O)=O: water solubility -3.876 (log10 mol/L) and Clint 1.869 µL/min/10^6 cells.
Listed for CC(=O)OCCN(CCC#N)c1ccc(N=Nc2c(Cl)cc([N+](=O)[O-])cc2Cl)cc1: melting point 121.8 °C and logP 4.1 and water solubility -7.051 (log10 mol/L).
Listed for FC(F)(F)C(F)(F)C(F)(F)C(F)(F)C(F)(F)C(F)(F)CCI: logP 3.8 and water solubility -7.189 (log10 mol/L) and log VP -0.618 (log10 mmHg).
Listed for C=CC(F)(F)C(F)(F)C(F)(F)C(F)(F)I: bp 135.4 °C and log VP 0.824 (log10 mmHg).
Listed for CCOc1ccc(-c2ccc(C3CCC(CC)CC3)cc2)c(F)c1F (stereo not drawn): melting point 77.6 °C and bp 414 °C and water solubility -6.847 (log10 mol/L) and log VP -7.193 (log10 mmHg).
Listed for C=CC(=O)OCCCCCCOc1ccc(C(=O)Oc2ccc(OC(=O)c3ccc(OCCCCCCOC(=O)C=C)cc3)c(C)c2)cc1: melting point 74.7 °C and water solubility -6.351 (log10 mol/L).
Listed for CCCCC(CC)COCCCNC(=O)Nc1cccc2c(NC(=O)NCCCOCC(CC)CCCC)cccc12 (stereo not drawn): logP 6.3 and water solubility -8.068 (log10 mol/L).
Listed for CN1CCCCC1CCN1c2ccccc2Sc2ccc(S(C)(=O)=O)cc21 (racemic): melting point 122 °C and logP 4.45.
Listed for CC(O)CN(CC(C)O)C(=O)c1ccccc1 (stereo not drawn): melting point 77.45 °C and bp 308.4 °C and logP 0.23.
Listed for CCCCCC(CN)CCC (stereo not drawn): melting point -56 °C and bp 208.2 °C and water solubility -2.746 (log10 mol/L) and log VP -0.853 (log10 mmHg).
Listed for CCC1(C)OC(=O)N(C)C1=O (stereo not drawn): melting point 31.5 °C and water solubility -0.066 (log10 mol/L).
Listed for FC(F)(F)OC(F)(F)OC(F)(Cl)C(F)(F)Cl (stereo not drawn): bp 72 °C and logP 4.4 and water solubility -5.558 (log10 mol/L) and log VP 2.063 (log10 mmHg).
Listed for OCCCCCCCCCCCCO: logP 3.1 and water solubility -4.034 (log10 mol/L) and log VP -6.287 (log10 mmHg).
Listed for CC1=C(O)C(=O)CC1: logP 0.4 and log VP 0.197 (log10 mmHg).

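These are experimental values that the OPERA curators gathered from public databases to train and test their QSAR models. One number stands for a compound and property, with no spread given. Method, purity and exact conditions of the single measurements are not given. Where a salt, mixture or single isomer is drawn, the source does not say that exactly this form was tested. Some upstream entries may be estimates or bounds without being marked so.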

Values as listed in the OPERA 2.9 repository of K. Mansouri.